These are literature values, as cited in PMC6287576 (International Journal for Parasitology: Drugs and Drug …, 2018).

For orientation: EC50 means the concentration at which the effect is half-maximal.

The data set has as its target P. equorum morantel heteromeric receptor made of the ACR-26 and ACR-27 subunits. Conditions: ACR-26/ACR-27 receptor; ref Courtot et al., 2015; cited from earlier work.

In the case of `CC(=O)OCC[N+](C)(C)C` [Acetylcholine, Acetylcholine chloride], the EC50 is 34.9 ± 1.1 µM.
